The record followed here is patent publication US12122780B2, “Pyrimidinyl group-containing tricyclic compound serving as c-Met inhibitor” (JIANGSU AOSAIKANG PHARMACEUTICAL CO., LTD., priority 2019, dated 2024).

This assay relates to EBC-1 cells. Nature of the assay: EBC-1 cell proliferation experiment (CellTiter-Glo). The note with it: read-out: EBC-1 cell proliferation activity IC50, 3 days. The protocol: MEM medium, fetal bovine serum, penicillin/streptomycin antibiotics were purchased from Wisent. EBC-1 cell line was purchased from Nanjing COBIO Bioscience Co., LTD. Envision multi-label analyzer (PerkinElmer).
EBC-1 cells were seeded in a white 96-well plate, […] cell suspension per well, which contained 3000 EBC-1 cells. The cell plate was placed in a carbon dioxide incubator for overnight culture.
The compound to be tested was diluted 5-fold to the eighth concentration with a discharge gun, i.e., from 2 mM to […], and double duplicate wells experiment was set. 78 μL of the medium was added to the middle plate, then 2 μL per well of gradient diluted compound was transferred to the corresponding position on the middle plate, then mixed well and 20 μL per well was transferred to the cell plate. The cell plate was cultured in a carbon dioxide incubator for 3 days. Another cell plate was prepared and the signal values were read on the day of dosing as […] to be used in the data analysis. 25 μL of Promega CellTiter-Glo was added to each well of this cell plate, and incubated at room temperature for 10 minutes to stabilize the luminescence signal. Readings were taken using a PerkinElmer Envision multi-label analyzer.
25 μL of Promega CellTiter-Glo reagent was added to each well of this cell plate, and incubated at room temperature for 10 minutes to stabilize the luminescence signal. Readings were taken using a PerkinElmer Envision multi-label analyzer.
Using the equation (Sample-Min)/(Max-Min)*100% to convert the original data to the inhibition rate, the IC50 value can be obtained by curve fitting with four parameters (obtained by “log(inhibitor) vs. response in GraphPad Prism—Variable slope mode).
A general note: Cellular ATP, detected with luciferase, serves as a proxy for viable cell number.

Where two headings read alike, the source gives them in different places.

For `CC(c1cccc(-c2ncc(OCC3CCN(C)CC3)cn2)c1)n1c(=O)ccn2c3cc(C#N)ccc3nc12` (single isomer, unassigned), the IC50 worked out at 74 nM. Moreover, the IC50 (tested form: HCl) amounted to 10.9 nM.

For the molecule `CC(c1cccc(-c2ncc(OCC3CCN(C)CC3)cn2)c1)n1c2c(ccc1=O)-c1cc(C#N)ccc1C2=O` (single isomer, unassigned), the IC50 (tested form: HCl) turned out to be 14 nM.
